From ChEMBL document CHEMBL4507292 (2021)

What was measured:
[1] = target: T1, SNF-related serine/threonine-protein kinase (Homo sapiens) (UniProt Q9NRH2); details: Compound concentration 1000.0 nM
T1 sequence (whole entry): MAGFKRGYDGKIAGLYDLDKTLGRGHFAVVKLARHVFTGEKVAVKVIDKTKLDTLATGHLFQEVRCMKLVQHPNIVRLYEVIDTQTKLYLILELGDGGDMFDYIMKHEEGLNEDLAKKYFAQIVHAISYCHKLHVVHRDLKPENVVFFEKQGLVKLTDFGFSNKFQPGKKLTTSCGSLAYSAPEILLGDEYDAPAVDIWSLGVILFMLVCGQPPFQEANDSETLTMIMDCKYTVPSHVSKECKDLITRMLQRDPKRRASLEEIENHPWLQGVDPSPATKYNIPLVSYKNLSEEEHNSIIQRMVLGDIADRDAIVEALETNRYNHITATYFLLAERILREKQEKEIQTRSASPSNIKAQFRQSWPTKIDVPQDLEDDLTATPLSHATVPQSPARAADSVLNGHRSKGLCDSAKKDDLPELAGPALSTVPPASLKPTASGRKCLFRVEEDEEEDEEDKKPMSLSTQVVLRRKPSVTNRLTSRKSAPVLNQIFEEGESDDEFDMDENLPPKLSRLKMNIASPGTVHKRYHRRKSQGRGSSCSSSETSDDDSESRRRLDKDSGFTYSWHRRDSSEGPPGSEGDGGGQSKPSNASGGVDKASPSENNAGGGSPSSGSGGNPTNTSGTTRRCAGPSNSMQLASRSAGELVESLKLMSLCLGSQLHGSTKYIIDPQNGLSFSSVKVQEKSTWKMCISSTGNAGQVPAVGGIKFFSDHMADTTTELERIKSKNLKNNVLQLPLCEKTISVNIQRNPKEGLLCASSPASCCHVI

[2] = target: T2, Protein kinase C iota type (Homo sapiens) (UniProt P41743); details: Compound concentration 1000.0 nM
T2 sequence (whole entry): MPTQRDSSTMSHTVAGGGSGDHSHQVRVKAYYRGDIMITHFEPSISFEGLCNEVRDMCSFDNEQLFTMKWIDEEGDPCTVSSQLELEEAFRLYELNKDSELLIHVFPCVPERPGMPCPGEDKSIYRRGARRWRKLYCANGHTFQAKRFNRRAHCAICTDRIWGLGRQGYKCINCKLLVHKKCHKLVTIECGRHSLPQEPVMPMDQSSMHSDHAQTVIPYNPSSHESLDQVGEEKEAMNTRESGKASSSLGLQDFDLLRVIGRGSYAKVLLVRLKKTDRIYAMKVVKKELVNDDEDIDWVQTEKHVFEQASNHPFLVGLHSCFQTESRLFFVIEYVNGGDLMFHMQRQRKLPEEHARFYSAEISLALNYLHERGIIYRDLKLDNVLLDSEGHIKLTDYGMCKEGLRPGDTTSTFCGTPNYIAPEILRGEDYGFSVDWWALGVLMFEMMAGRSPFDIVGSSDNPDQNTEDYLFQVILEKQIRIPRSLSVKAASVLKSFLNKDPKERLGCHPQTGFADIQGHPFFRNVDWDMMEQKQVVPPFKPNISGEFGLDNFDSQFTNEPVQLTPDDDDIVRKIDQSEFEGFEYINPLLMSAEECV

`Cc1c(C(=O)O)cc(-c2ccc(C3CCNCC3)cc2)c2ccc(-c3ccc(C(F)(F)F)cc3)cc12` [PPTN-NC] gave a residual activity [1] of 69% and a residual activity [2] of 68%.
